{"source": "patent US12428380B2", "about": "(PSYLO PTY LTD, priority 2023, dated 2025)", "key": {"C57BL/6J mice": {"tested_on": "C57BL/6J mice", "experiment": "Biotelemetry and head-twitch response (HTR) experiments (Example 50a)", "settings": "male C57BL/6 mice, SC administration over several doses; for head-twitch response (HTR): FIG. 2; for tolerability (temperature, locomotor, HTR data): FIGS. 2-5"}, "[1]": {"experiment": "In vivo pharmacokinetics, plasma and brain exposure after IP dosing (Example 49a)", "settings": "male C57BL/6 mice, IP 10 mg/kg"}, "ICR mice": {"tested_on": "ICR mice", "experiment": "Acute restraint stress - tail suspension test (Example 51a)", "assay_type": "in vivo, mouse", "settings": "male ICR mice after 5 h acute restraint stress, IP, tested 10 min after treatment, FIGS. 6 and 7"}}}
{"smiles": "COc1ccc2[nH]cc(CCN(C)C)c2n1", "values": [{"measurement": "head-twitch response (HTR)", "setting": "C57BL/6J mice", "value": "not promoting increased head-twitch response"}, {"measurement": "tolerability (temperature, locomotor, HTR data)", "setting": "C57BL/6J mice", "value": "well-tolerated"}, {"measurement": "Plasma AUC0-last", "setting": "[1]", "value": 1.37, "unit": "µM·h"}]}
{"smiles": "COc1cnc2[nH]cc(CCN(C)C)c2c1", "values": [{"measurement": "immobility time in tail suspension test", "setting": "ICR mice", "value": "decrease the immobility time"}, {"measurement": "head-twitch response (HTR)", "setting": "C57BL/6J mice", "value": "not promoting increased head-twitch response"}, {"measurement": "tolerability (temperature, locomotor, HTR data)", "setting": "C57BL/6J mice", "value": "well-tolerated"}]}
{"smiles": "COc1ccnc2[nH]cc(CCN(C)C)c12", "values": [{"measurement": "head-twitch response (HTR)", "setting": "C57BL/6J mice", "value": "not promoting increased head-twitch response"}, {"measurement": "tolerability (temperature, locomotor, HTR data)", "setting": "C57BL/6J mice", "value": "well-tolerated"}]}
{"smiles": "COc1nccc2[nH]cc(CCN(C)C)c12", "values": [{"measurement": "Plasma AUC0-last", "setting": "[1]", "value": 1.63, "unit": "µM·h"}]}
